{"sequences": {"note": "Chains of the proteins cited; added tags and fusions are not shown.", "UniProt P25929, whole entry": "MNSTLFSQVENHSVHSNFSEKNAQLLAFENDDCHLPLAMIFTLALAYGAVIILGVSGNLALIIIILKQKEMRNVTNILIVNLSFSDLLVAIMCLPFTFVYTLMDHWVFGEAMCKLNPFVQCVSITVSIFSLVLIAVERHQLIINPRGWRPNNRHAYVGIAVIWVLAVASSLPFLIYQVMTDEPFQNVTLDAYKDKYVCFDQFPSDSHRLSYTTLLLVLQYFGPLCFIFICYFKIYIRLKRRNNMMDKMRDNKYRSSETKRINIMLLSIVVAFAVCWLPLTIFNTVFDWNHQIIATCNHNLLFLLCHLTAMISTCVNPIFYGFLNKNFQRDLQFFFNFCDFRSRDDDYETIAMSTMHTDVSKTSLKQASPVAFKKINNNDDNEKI"}, "source": "patent US5696093A", "about": "(CRC for Biopharmaceutical Research Pty Limited, priority 1994, dated 1997)", "origin": "cited, not measured here", "molecular_target": "neuropeptide Y Y1 receptor (Homo sapiens, UniProt P25929)", "set-up": "expressed in transfected cells; host or cells: CHO cells, calcium phosphate transfection, cDNA NEO expression vector (Invitrogen)", "conditions": "Herzog et al, 1992; cited from earlier work"}
{"substance": "[Leu^31, Pro^34 ] neuropeptide Y [[Leu^31, Pro^34] NPY]", "values": [{"measurement": "increase in cytosolic calcium via cloned Y1 receptor, earlier study", "value": "stimulate increases in cytosolic calcium levels"}]}
